Data on three compounds can be found in patent publication US20250177555A1 (priority 2022, published 2025).

The subject of assay [1] is CNV-G-GFP11/DmrC-GFP1-10/DmrA-Cre Gectosomes in HeLa-ColorSwitch cells. In words: cells. To be noted: read-out: IC50, percentage of switched cells. In kind it is cell-based.
The test system of assay [2] is VSV-G gectosome-mediated Cre delivery. The assay is classed as cell-based.

Counter-ions that a name gives are not always drawn.

The term IC50 denotes the concentration needed to halve the response being measured. Consider `COc1cc2c3cc1Oc1c(OC)c(OC)cc4c1[C@@H](Cc1ccc(O)c(c1)Oc1ccc(cc1)C[C@@H]3N(C)CC2)N(C)CC4` [Berbamine HCl], for which the concentration for half-maximal inhibition (IC50) in assay [1] was 2400 nM.
In the case of `C/C1=C/C(=O)O[C@@H]2C[C@@H](CC[C@H](C)/C=C\CC1)O[C@@](O)([C@@H]1CSC(=O)N1)C2` [Latrunculin B], the “inhibition of VSV-G gectosome-mediated Cre delivery” value in assay [2] was “does not inhibit”.
On to `COc1ccc2c(c1)CC[C@@H]1[C@@H]2CC[C@]2(C)[C@@H](NCCCCCCN3C(=O)C=CC3=O)CC[C@@H]12` [U-73122], for which the “inhibition of VSV-G gectosome-mediated Cre delivery” value in assay [2] is listed as “inhibits both”.
